Ab-14 light chain CDR variants: yeast mating affinities

Target peptide (SARS-CoV-2 spike, HR2 region): PDVDLGDISGINAS

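The starting antibody came from a phage panning campaign against this peptide. Designed CDR sequences, proposed from the first random library and measured here. Several design methods are mixed in this list. The assay is AlphaSeq: two haploid yeast populations carry antibody and antigen on their surface. Binding brings cells together so that they mate, and sequencing counts the barcode pairs among the diploids. A regression on co-assayed BCL2-family reference pairs converts the normalised counts of each replicate to an apparent Kd. There are six technical replicates.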

Parent scFv Ab-14: VH joined to VL by a (GGGGS)3 linker. Changes lie in the light chain CDRs alone.
VH: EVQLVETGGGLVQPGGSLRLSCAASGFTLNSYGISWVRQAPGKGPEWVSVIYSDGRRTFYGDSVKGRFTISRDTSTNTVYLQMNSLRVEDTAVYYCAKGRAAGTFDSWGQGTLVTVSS
VL: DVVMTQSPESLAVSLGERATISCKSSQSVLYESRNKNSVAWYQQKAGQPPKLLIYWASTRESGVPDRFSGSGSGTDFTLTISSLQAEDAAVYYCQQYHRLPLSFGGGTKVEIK

Variants are written as CDR1, CDR2 and CDR3 of the light chain (limits as in the source). Parent: KSSQSVLYESRNKNSVA, WASTRES, QQYHRLPLS. Values are log10 of the apparent Kd in nM; lower means stronger binding. A mean of the replicates is given; it leaves out those without a signal. "no signal" marks a missing value. The strain was present, yet no cells mated with the target were sequenced in any replicate, which points to weak or no binding. The list is sorted by this average, lowest first, undetected variants last. The range of this assay differs from that of the first round, and the authors advise against merging the two. In the paper, a design with two or fewer of six values counts as a poor binder. As a blank, each scFv also met three strains without target: over all light chain designs, 4% of these pairings were detected, typically at 2.64 and seldom below 1.59. Also given: how often the same scFv was detected with the empty control strains.

"log10 Kd (nM), mean",seen in,empty controls,CDR-L1,CDR-L2,CDR-L3
-0.52,6 of 6,0 of 18,KVSQSFLMESRNKNSVA,DASTRES,QQYHRLPLS
-0.44,6 of 6,0 of 18,TLGQSTLMESRNKDNVA,QMSTREK,QQYHRLPLS
-0.33,6 of 6,2 of 18,KQSQSVGYESRNKNSVA,DASTRSS,QQYHRLPLS
-0.28,6 of 6,2 of 18,KSSISGLYESGMKNSVA,EASTRES,QQYHRLPLS
-0.25,6 of 6,0 of 18,KQSQSVLYESVNKNSVA,DASTRCS,QQYHRLPLS
-0.20,6 of 6,0 of 18,KLPQQTLYESRNKNSVA,SASTREE,QQYHRLPLS
-0.05,6 of 6,1 of 18,KLQQSWLYESRNKNSVA,NASQRMS,QQYHRLPLS
-0.03,6 of 6,0 of 18,KLQQQSLYESRNKNSVA,EASTREQ,QQYHRLPLS
-0.01,6 of 6,1 of 18,KIFQSVQYESRQKNSVA,NASDRMS,QQYHRLPLS
-0.01,6 of 6,3 of 18,KLQYSNLYGSRNLNSVA,NASTRLQ,QQYHRLPLS
0.00,6 of 6,2 of 18,KESQSHLYESRNKNSVA,GASTRES,QQYHRLPLS
0.01,6 of 6,0 of 18,KLSCVYLYESRNKNSVA,GASTRES,QQYHRLPLS
0.10,6 of 6,0 of 18,KWEWSQLYESRNKNSVA,NASLRES,QQYRRLPLS
0.11,6 of 6,0 of 18,KMHLTHEAQPRNHNNIA,EGNLRPT,QQYFRLPLM
0.18,6 of 6,4 of 18,KLYFNVGTVAHNTQSIA,DMERRED,QQYHRLPLS
0.20,6 of 6,1 of 18,KVMQEMLYESRMANSVA,NASQRES,QQYHRLPLS
0.22,6 of 6,0 of 18,KLQQSVLQLWRNANSVA,QASHRES,QQYHRLPLS
0.24,6 of 6,3 of 18,KFSQSVLYESRNQNSVA,NASTRES,QQYHRLPLS
0.26,6 of 6,0 of 18,KVSISYLLESRNKNSVA,EASTRES,QQYHRLPLS
0.29,6 of 6,1 of 18,KIHELGVGNWKTANNIA,QTDIRMS,QSYNRLPLS
0.30,6 of 6,0 of 18,KVDFSWWYESRNKNSVA,NASTREH,QQYHRLPLS
0.32,6 of 6,1 of 18,KESWSVLFESRNKNSVA,DASTRSS,QQYHRLPLS
0.34,6 of 6,0 of 18,NLSWKTEMQNMDYYAVA,QTEQREA,QQYAILPLS
0.35,6 of 6,2 of 18,KLGQSTAMTSRMKNNVA,DLNTRER,QQYHRLPLS
0.36,6 of 6,1 of 18,KLQQWVLYEGRNKNSVA,SASQRSD,QQYHRLPLS
0.37,6 of 6,1 of 18,KLPQSYLYESRNKNSVA,EASTRES,QQYHRLPLS
0.37,6 of 6,2 of 18,KVSPSQLYWSRNKNAVA,QASTRET,QQYHRLPLS
0.39,6 of 6,3 of 18,KLQQQTLYESRNKNSVA,HASTREE,QQYHRLPLS
0.43,6 of 6,1 of 18,KLSQSNGYESRMFNSVA,NASQRES,QQYHRLPLS
0.45,6 of 6,0 of 18,KISQEDPMESRNKNSVA,HASLRES,QQYHRLPLS
0.54,6 of 6,1 of 18,TISQMWFVESKNRNNVA,EMTTREN,QDYDRLPLS
0.54,6 of 6,1 of 18,RITQQMAGFERHAANIA,STAVRLW,QQYARLPFI
0.56,6 of 6,0 of 18,RIDPYEAMAGKNKESIA,EAAVTLT,QQYARLPLS
0.62,6 of 6,1 of 18,KQSQSVLYEWRNKNSVA,EASTRES,QQYHRLPLS
0.65,6 of 6,1 of 18,KLSQSVLYESRNFNSVA,GASTRES,QQYHRLPLS
0.66,6 of 6,1 of 18,KSSQSVLSESDNKNSVA,WASTRES,QQYHRLPLS
0.70,6 of 6,0 of 18,KIGMVLNTLLHQKNNVA,DLVTREN,QQYFRLPLS
0.70,6 of 6,1 of 18,KLTMITGLEKVSTNNVA,EMETRER,QQYNRLPLS
0.71,4 of 6,0 of 18,ALGDVTRMESNKKNSIA,DMSNREQ,QQYHRLPLS
0.72,6 of 6,0 of 18,KLSMSVDYESRMCNSVA,EASTRES,QQYHRLPLS
0.73,6 of 6,2 of 18,KLIQSVAMMSRNKNSIA,DNSTRES,QQYHRLPLS
0.73,6 of 6,0 of 18,KVSQSMLYQSRNKNNVA,EASTREQ,QSYHRLPLS
0.74,6 of 6,3 of 18,TISQMTSLFSQTINNVA,EVSTREP,QQYDRLPLS
0.76,6 of 6,1 of 18,KSSISYLYESRNFNSVA,EASTREQ,QQYHRLPLS
0.77,6 of 6,2 of 18,KSSQSVLYESRNKNSVA,GASTRVS,QGYVRLPLS
0.90,6 of 6,0 of 18,MLSQMWGVGSKHSNSVA,QASMRFN,QQYDRLPLI
0.94,6 of 6,0 of 18,KVSYSGLYGSRNKNSVA,EASTRES,QQYHRLPLD
0.96,6 of 6,1 of 18,KSSISELYESMNKNSVA,NASTRES,QQYHRLPLS
0.97,6 of 6,0 of 18,TISQMFLGESRNRNSVA,QASTRCS,QSYDRLPLS
1.11,3 of 6,0 of 18,KLSVVTGHQLMSKDNVA,EMETREN,QQYDRLPLS
1.12,6 of 6,0 of 18,IITQSVMAESRNKSNVA,NTSEREP,QQYDRLPLI
1.16,6 of 6,0 of 18,QSSQSVLKESRNKNSVA,WASTRES,QQYHRLPLS
1.46,5 of 6,0 of 18,RLMGWGPDQIQHANSIA,DRDEVDS,QQYAHLPLS
1.46,6 of 6,0 of 18,NMKVGLNFEDIQHQAIA,SVDERES,QQYYRLPLT
1.62,6 of 6,3 of 18,MISLCQNSYYDANNSIA,DRNERAM,QQYGRLPLV
1.63,6 of 6,2 of 18,KSSQSVLYESRNKNSVA,YATTRES,QQYHTLPLS
1.68,3 of 6,0 of 18,IVSQLMLWGLHAKNSIA,EAVTRTN,QQYDRLPLF
1.70,2 of 6,0 of 18,TISQVHEMLSRNKNSVA,DMNTRES,QQYDRLPLS
1.70,6 of 6,0 of 18,KLMSHEQHGTARNSAMA,NAQVSTQ,QQYSHLPLS
1.73,6 of 6,1 of 18,KISQMYRYEQQNTSSIA,EANTREQ,QSYHRLPLS
1.79,5 of 6,0 of 18,ILYDSVGTLSRNHNSVA,DNSTRES,QQYDRLPLS
1.89,1 of 6,0 of 18,KLSLVLGESKQSEKNIA,NMRVSVA,QQYDTLPLT
2.00,6 of 6,2 of 18,KSSQDVLYESRNANSVA,WASTRES,QQYHRLPLS
2.08,4 of 6,0 of 18,KTSGSVLYESRNKNSVA,WASTRES,QQYQRLPLS
2.15,5 of 6,1 of 18,KVSEFMRGLMQRTDSIA,DNVTRQN,QQYDRLPLS
2.29,5 of 6,1 of 18,KLWMIFPEGQQELSAVA,NAGTLVQ,QQYNVLPLS
2.35,5 of 6,0 of 18,KIYQFGLNHSHNTNSIA,DQTCRED,QQYDRLPLS
2.48,5 of 6,2 of 18,MISDTGQHDSRMKNSVA,NNSTRES,QQYHRLPLS
2.99,6 of 6,2 of 18,KSSQSVLYESWNKNSVA,WASTREK,QQYHRLPLS
no signal,0 of 6,0 of 18,KSSQSVFYESRNKNSVA,WASEREN,QQPHRLPLS
no signal,0 of 6,0 of 18,KSSQSVLYESRNKNNVA,WASVRES,QQCHRLPLS
no signal,0 of 6,0 of 18,KSSQSFLYESRNKNSVA,GASTRES,QSYHRLTLS
no signal,0 of 6,0 of 18,KSSQSVLYESRNHNSVA,DASTREN,QQYHRLPLS
no signal,0 of 6,0 of 18,KSPQSVLMESRNKNSVA,WASTRES,QQYHRLLLS
no signal,0 of 6,0 of 18,HVSPSVPYESRNKNSVA,NASTRES,QQYHRLPLS

The opening 7 entries, copied out:

{"CDR-L1": "KVSQSFLMESRNKNSVA", "CDR-L2": "DASTRES", "CDR-L3": "QQYHRLPLS", "log10 Kd (nM), mean": "-0.52", "seen in": "6 of 6", "empty controls": "0 of 18"}
{"CDR-L1": "TLGQSTLMESRNKDNVA", "CDR-L2": "QMSTREK", "CDR-L3": "QQYHRLPLS", "log10 Kd (nM), mean": "-0.44", "seen in": "6 of 6", "empty controls": "0 of 18"}
{"CDR-L1": "KQSQSVGYESRNKNSVA", "CDR-L2": "DASTRSS", "CDR-L3": "QQYHRLPLS", "log10 Kd (nM), mean": "-0.33", "seen in": "6 of 6", "empty controls": "2 of 18"}
{"CDR-L1": "KSSISGLYESGMKNSVA", "CDR-L2": "EASTRES", "CDR-L3": "QQYHRLPLS", "log10 Kd (nM), mean": "-0.28", "seen in": "6 of 6", "empty controls": "2 of 18"}
{"CDR-L1": "KQSQSVLYESVNKNSVA", "CDR-L2": "DASTRCS", "CDR-L3": "QQYHRLPLS", "log10 Kd (nM), mean": "-0.25", "seen in": "6 of 6", "empty controls": "0 of 18"}
{"CDR-L1": "KLPQQTLYESRNKNSVA", "CDR-L2": "SASTREE", "CDR-L3": "QQYHRLPLS", "log10 Kd (nM), mean": "-0.20", "seen in": "6 of 6", "empty controls": "0 of 18"}
{"CDR-L1": "KLQQSWLYESRNKNSVA", "CDR-L2": "NASQRMS", "CDR-L3": "QQYHRLPLS", "log10 Kd (nM), mean": "-0.05", "seen in": "6 of 6", "empty controls": "1 of 18"}

The measurements come from Li et al. 2023 (doi:10.1038/s41467-023-39022-2) through the FLAb antibody collection.